Results published in PubChem BioAssay AID624300 (Southern Research Specialized Biocontainment Screening …, 2012).

Tested on: HeLa viability, CellTiter-Glo luminescence, 24 h
Experiment: viability loss in HeLa cells – cytotoxicity control for MgcRacGAP inhibitor project, dose response (AID 624300)

CCCCCCCCCCCCCCCC1C[N+](C)(C)CCOP(C)(=O)O1 (stereo unspecified)
CC50: 57.3 µM
